Source: ChEMBL document CHEMBL1140140, “4-[3-(4-cyclopropanecarbonylpiperazine-1-carbonyl)-4-fluorobenzyl]-2H-phthalazin-1-one: a novel bioavailable inhibitor of poly(ADP-ribose) polymerase-1” (J Med Chem, 2008)

By UniProt entry, the sequences of proteins in these tests, tags left out.
UniProt P09874, whole entry: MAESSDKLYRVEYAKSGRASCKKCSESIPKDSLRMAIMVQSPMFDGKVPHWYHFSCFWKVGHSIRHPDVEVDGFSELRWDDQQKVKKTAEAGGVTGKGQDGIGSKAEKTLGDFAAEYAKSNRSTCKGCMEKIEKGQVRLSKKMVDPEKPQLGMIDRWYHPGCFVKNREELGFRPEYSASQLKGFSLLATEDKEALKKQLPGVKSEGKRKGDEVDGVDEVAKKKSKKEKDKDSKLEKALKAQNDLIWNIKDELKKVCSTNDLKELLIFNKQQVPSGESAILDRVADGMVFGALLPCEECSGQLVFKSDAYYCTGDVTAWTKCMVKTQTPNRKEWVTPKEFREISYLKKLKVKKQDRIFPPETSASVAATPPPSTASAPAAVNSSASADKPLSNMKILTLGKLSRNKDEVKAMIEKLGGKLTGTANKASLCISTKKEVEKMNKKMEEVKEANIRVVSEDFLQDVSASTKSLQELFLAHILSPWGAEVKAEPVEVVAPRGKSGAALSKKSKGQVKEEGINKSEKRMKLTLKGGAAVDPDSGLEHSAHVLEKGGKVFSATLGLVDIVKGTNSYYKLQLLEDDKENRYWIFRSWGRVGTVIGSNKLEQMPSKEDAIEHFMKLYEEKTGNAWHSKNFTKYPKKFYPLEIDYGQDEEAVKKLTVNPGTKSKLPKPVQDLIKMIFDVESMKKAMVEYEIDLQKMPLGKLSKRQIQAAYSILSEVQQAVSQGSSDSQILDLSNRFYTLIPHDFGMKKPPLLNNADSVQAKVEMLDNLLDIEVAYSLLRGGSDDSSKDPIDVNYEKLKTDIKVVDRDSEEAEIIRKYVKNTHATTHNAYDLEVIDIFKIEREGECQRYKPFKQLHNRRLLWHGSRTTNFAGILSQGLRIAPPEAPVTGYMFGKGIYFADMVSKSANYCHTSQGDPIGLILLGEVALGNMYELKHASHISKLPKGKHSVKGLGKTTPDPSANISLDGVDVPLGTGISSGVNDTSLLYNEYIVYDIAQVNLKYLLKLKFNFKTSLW

Biological target: Poly [ADP-ribose] polymerase 1 (Homo sapiens, UniProt P09874)

O=C(c1cc(Cc2n[nH]c(=O)c3ccccc23)ccc1F)N1CCN(CC2CC2)CC1
IC50: 4 nM
